Values of other authors as cited in US20240424006A1, “USE OF UROLITHIN DERIVATIVES IN THE TREATMENT OF AMYOTROPHIC LATERAL SCLEROSIS” (Vandria SA, priority 2023, published 2024).

Settings: ALS; FDA-approved therapy

Nc1nc2ccc(OC(F)(F)F)cc2s1 [riluzole]
prolongation of survival: about 10%
